Target: T1, α-1A adrenoceptor (dog prostate) (Canis lupus, UniProt A0A8I3NK63)
T1 sequence (A0A8I3NK63 1-466): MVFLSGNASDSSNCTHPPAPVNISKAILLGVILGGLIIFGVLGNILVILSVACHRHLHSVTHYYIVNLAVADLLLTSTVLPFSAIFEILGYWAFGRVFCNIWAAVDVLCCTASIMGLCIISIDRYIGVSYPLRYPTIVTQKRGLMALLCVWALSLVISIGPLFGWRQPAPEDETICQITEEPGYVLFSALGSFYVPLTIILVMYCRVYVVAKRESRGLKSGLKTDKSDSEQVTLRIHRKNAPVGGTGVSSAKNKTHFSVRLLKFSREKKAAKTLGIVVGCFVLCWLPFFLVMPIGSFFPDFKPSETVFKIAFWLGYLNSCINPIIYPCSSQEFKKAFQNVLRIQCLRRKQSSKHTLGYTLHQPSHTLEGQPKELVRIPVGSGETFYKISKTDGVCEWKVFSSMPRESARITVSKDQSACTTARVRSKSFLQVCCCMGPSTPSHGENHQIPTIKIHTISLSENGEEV
Assay: Functional antagonism: phenylephrine (PE)-induced contraction of canine prostate strips
Settings: Table 2a; vs phenylephrine; Schild plot

## COc1cc2nc(N3CCN(C(=O)c4ccco4)CC3)nc(N)c2cc1OC [prazosin, reference compound]
  pA2 Dog Prostate [α-1A]: 7.59

From US5597823A, “Tricyclic substituted hexahydrobenz [e]isoindole alpha-1 adrenergic antagonists” (priority 1995, dated 1997)
